These results are taken from the supplement of paper PMC12339681.

This is a selection; strong and weak results do not stand in their true shares.

For the experiment, the system named is PBMC-derived induced microglia-like cells (piMGLC). Put plainly: synaptosome phagocytic index relative to DMSO control (fraction of DMSO); higher = more phagocytosis. The note with it: concentration: 10 uM (2 uM for compounds listed in Table S2); pretreatment time: 24 h; assay time: 3 h. How it is done:
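PBMC-derived induced microglia-like cells (piMGLCs) in 96-well plates were pretreated for 24 h with CNS-penetrant library compounds (MedChemExpress HY-L028), mostly at 10 uM; Table S2 lists 9 compounds at 2 uM. pHrodo-Red-labelled human iPSC-neuron synaptosomes (3 ug/well) were then added for 3 h, and cells were fixed and imaged by confocal microscopy. Phagocytic index (synaptosome area / cell count, CellProfiler) is a mean over 3 replicate wells on different plates, normalized to the DMSO control. Compounds leaving <10% of DMSO cell count were marked toxic and given no value.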
For the molecule `CNC[C@@H]1OCCc2ccsc21`, the synaptosome phagocytic index worked out at 0.103.
